This passage reports ΔTm results from ChEMBL document CHEMBL5154816, “Structure-Based Discovery and Optimization of Furo[3,2-c]pyridin-4(5H)-one Derivatives as Potent and Second Bromodomain (BD2)-Selective Bromo and Extra Terminal Domain (BET) Inhibitors” (J Med Chem, 2022).

The chains behind the UniProt entries cited, without tags or fusion partners.
UniProt Q15059, whole entry, looked up: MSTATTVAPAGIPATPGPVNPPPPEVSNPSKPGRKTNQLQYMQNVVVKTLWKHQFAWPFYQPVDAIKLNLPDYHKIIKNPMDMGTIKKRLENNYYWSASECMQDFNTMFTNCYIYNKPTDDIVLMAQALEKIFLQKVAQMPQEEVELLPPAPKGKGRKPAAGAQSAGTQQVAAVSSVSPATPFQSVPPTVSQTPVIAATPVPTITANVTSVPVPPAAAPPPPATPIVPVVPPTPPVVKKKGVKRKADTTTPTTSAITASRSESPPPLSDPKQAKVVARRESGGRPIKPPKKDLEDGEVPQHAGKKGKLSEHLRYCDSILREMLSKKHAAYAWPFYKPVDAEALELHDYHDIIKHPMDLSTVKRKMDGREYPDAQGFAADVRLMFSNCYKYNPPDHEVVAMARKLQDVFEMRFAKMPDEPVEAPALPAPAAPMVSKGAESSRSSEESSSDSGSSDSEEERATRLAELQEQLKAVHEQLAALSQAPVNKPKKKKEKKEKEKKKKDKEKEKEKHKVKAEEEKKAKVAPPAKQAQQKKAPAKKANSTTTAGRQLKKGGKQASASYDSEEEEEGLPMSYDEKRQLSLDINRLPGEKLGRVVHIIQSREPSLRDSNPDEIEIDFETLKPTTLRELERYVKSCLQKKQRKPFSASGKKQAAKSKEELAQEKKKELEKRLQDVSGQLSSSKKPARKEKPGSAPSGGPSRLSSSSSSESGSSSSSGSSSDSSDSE
UniProt P21675, whole entry: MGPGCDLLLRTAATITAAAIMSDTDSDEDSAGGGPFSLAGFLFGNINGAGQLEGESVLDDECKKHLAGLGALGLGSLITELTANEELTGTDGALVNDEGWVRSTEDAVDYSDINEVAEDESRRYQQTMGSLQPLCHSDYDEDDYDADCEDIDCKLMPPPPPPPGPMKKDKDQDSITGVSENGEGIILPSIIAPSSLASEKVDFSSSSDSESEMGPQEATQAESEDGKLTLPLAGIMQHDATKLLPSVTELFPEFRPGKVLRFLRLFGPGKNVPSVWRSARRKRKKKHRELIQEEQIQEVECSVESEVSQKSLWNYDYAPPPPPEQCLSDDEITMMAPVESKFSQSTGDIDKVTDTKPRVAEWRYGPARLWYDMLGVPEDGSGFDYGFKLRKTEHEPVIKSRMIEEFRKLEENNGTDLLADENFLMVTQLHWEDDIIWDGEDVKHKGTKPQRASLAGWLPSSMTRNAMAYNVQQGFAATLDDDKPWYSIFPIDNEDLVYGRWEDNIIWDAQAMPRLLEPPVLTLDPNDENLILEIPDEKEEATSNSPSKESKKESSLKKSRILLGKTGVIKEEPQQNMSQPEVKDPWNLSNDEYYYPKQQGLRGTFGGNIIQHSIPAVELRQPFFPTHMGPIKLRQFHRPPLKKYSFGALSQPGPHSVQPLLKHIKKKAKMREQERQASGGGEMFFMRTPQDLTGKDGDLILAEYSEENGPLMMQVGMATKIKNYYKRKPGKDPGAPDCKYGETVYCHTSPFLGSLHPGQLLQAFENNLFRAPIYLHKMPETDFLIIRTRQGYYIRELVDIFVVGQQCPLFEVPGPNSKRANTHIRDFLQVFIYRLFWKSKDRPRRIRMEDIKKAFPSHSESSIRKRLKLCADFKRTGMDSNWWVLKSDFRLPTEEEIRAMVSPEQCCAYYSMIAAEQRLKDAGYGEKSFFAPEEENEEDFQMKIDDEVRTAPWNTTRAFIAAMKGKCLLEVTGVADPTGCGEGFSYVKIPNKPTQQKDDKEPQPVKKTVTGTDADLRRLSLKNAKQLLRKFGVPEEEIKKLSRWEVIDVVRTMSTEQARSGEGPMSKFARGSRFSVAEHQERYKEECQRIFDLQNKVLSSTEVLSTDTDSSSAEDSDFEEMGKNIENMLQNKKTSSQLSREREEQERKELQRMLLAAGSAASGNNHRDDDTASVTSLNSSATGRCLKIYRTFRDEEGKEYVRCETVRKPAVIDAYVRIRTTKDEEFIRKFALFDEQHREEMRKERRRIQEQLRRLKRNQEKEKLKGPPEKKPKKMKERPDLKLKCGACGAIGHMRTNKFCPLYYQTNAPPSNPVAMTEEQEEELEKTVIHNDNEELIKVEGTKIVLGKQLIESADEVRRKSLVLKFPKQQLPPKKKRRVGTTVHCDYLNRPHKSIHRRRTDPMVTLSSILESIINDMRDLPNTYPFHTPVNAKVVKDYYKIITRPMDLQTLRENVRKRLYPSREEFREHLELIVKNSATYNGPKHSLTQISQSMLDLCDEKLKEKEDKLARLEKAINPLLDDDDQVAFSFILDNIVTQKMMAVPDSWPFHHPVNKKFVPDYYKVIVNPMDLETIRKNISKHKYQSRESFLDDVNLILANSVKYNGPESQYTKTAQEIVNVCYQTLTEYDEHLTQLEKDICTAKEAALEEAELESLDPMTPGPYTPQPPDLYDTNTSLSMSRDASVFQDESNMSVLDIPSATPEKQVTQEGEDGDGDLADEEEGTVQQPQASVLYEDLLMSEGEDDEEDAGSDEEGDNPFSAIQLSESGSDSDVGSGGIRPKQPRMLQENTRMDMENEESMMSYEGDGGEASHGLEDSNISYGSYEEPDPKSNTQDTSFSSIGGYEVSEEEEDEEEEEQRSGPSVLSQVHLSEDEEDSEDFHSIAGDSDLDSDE

In assay [1] the target is Bromodomain-containing protein 3 (Homo sapiens, UniProt Q15059). Put plainly: Binding affinity to His6-fused BRD3 BD1 (unknown origin) assessed as change in melting temperature at 100 uM incubated for 30 mins by thermal shift assay.
The target in assay [2] is Transcription initiation factor TFIID subunit 1 (Homo sapiens) (UniProt P21675). Put plainly: Binding affinity to TAF1 BD2 (unknown origin) assessed as change in melting temperature at 100 uM incubated for 30 mins by thermal shift assay.

In general, ΔTm refers to the shift of the melting midpoint relative to a reference. In the case of `Cc1cc(F)cc(C)c1Oc1ccc(C(C)(C)O)cc1-c1cn(C)c(=O)c2cc(-c3cnc(C4CCCC4)[nH]3)oc12`, the values for the ΔTm in assay [1] and in assay [2] were 2.75 °C and -0.5 °C, respectively.
